Earlier results, collected in patent US10118955B2, “C-terminal fragments of glucagon-like peptide-1 (GLP-1)” (The General Hospital Corporation, priority 2008, dated 2018).

Chains of the proteins cited; added tags and fusions are not shown. Residues count along the entry.
UniProt P43220, 24-463: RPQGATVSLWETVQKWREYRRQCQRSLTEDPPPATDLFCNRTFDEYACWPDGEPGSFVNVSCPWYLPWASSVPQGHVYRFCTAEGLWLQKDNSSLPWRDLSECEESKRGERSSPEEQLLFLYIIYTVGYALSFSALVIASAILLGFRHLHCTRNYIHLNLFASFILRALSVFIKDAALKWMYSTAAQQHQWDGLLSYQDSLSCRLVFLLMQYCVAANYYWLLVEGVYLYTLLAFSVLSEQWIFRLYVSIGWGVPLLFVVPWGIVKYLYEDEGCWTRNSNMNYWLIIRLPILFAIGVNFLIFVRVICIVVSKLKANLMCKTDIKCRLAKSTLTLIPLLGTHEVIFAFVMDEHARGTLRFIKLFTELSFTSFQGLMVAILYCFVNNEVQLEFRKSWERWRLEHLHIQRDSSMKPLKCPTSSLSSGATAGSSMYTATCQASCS

Target: GLP-1 GPCR (Homo sapiens, UniProt P43220)
Details: (nM); cited from earlier work

Substance | binding affinity to the GLP-1 GPCR
GLP-1(7-36)amide | high affinity
GLP-1(7-37) | high affinity
